Patent publication US20240043618A1, “ANTIMICROBIAL COMPOSITIONS” (priority 2021, published 2024)

Tested on: Vero E6 cells

Substance | Toxicity (highest dilution of the endpoint titer where full (80-100%) cytotoxicity was observed)
betainized polyethyleneimine-boric acid [B-PEI-BA] | None
betainized polyethyleneimine-citric acid [B-PEI-CA] | None
betainized polyethyleneimine-hydrogen chloride [B-PEI-HCl] | None
polyethyleneimine-boric acid [PEI-BA] | 1/100
polyethyleneimine-citric acid [PEI-CA] | 1/100
polyethyleneimine-hydrogen chloride [PEI-HCl] | 1/100
